Data from patent US20110039825A1, “LIGANDS OF ALPHA-ADRENOCEPTORS, DOPAMINE, HISTAMINE, IMIDAZOLINE AND SEROTONIN RECEPTORS AND THEIR USE” (Alla Chem, LLC, priority 2007, published 2011).

Protein sequences, listed by entry. Tags and fused reporters are not part of them.
UniProt P35367, whole entry: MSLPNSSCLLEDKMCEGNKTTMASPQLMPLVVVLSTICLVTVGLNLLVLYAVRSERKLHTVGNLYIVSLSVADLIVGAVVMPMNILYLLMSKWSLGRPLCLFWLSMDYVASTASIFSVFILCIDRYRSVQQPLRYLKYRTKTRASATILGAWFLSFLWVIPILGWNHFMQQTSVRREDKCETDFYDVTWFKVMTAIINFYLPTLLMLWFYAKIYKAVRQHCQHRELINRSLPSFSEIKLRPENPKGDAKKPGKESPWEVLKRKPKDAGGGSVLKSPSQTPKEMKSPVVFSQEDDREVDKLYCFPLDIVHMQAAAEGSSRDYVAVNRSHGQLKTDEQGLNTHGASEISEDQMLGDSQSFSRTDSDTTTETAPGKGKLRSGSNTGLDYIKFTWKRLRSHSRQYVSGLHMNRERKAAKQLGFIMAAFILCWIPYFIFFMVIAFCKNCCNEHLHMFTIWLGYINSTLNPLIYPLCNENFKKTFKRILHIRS

Target: T1, human H1 receptor (Homo sapiens, UniProt P35367)
T1 construct: expressed in transfected cells; host or cells: CHO-K1
Assay: radioligand binding to histamine receptor H1 ([3H] Pyrilamine)
From the text: Biochem Biophys Res Comm. 197(3): 1601-1608, 1993]. […] Biochem Biophys Res Comm. 197(3): 1601-1608, 1993].
Pyrilamine is used as positive control.

Cc1ccc2c(c1)c1c(n2CCc2ccccc2)CCN(C)C1.Cl [1.1.2(1-2)•HCl, 2,8-dimethyl-5-phenethyl-1,2,3,4-tetrahydro-1H-pyrido[4,3-b]indole hydrochloride]
IC50: < 10 nM
Histamine receptor H1, % inhibition (10 μM ligand): 104%
